# Measurements taken from PubChem BioAssay AID652163 (Broad Institute, 2013).
# The chains behind the UniProt entries cited, without tags or fusion partners.
# UniProt P26447, whole entry: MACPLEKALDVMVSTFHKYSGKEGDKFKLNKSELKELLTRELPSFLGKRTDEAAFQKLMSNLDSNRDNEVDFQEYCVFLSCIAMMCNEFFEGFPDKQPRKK
# Only a part is listed here, and it is no random draw. Some salts and complexes are drawn in separate pieces, as the source files them; their charges need not balance. The source made the active and inactive calls.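 The calls were made as follows: active = mean inhibition of at least 70% across replicates, with every replicate also reaching that level; inconclusive = mean inhibition reaches 70% but some replicates fall short; inactive = mean inhibition below 70%.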
# Biological target: Protein S100-A4 (Homo sapiens) (UniProt P26447)
# Experiment: human S100A4 protein-peptide interaction blockers – biochemical, fluorescence polarization, TAMRA-MyoIIA peptide, primary screen (AID 652163)
# Conditions: at 10.7 µM, active compounds read high
row,Structure (SMILES),inhibition
1,CCN(CC)CCCOC(=O)C(O)(c1ccccc1)c1ccccc1,inactive: -8.73%
2,COc1ccccc1-c1ccccn1.O=[N+]([O-])c1cc([N+](=O)[O-])c(O)c([N+](=O)[O-])c1,inactive: -1.2%
3,O=[N+]([O-])c1cc([N+](=O)[O-])c(Nc2cccnc2)c([N+](=O)[O-])c1,inactive: -5.1%
4,Cc1cccc(C)c1OP(C)(N)=O (configuration not stated),inactive: -7.53%
5,CC(C)(C)c1ccc(OP(C)(=O)Nc2ccc(SC(F)(F)F)cc2)cc1 (configuration not stated),inactive: -0.605%
6,O=[N+]([O-])c1ccc2c(c1)C=Nc1ccccc1O2,inactive: 1.54%
7,COc1ccccc1OP(C)(=O)Nc1cc(Cl)ccc1C (configuration not stated),inactive: 3.52%
8,Cc1cc(C)cc(OP(C)(N)=O)c1 (configuration not stated),inactive: -2.06%
9,COc1ccccc1OP(C)(=O)Nc1ccccc1 (configuration not stated),inactive: -0.694%
10,CP(=O)(Nc1ccccc1Br)Oc1ccccc1 (configuration not stated),inactive: 2.72%
11,CP(=O)(Oc1ccccc1)OC(c1ccccc1)C(F)(F)F (configuration not stated),inactive: -0.705%
12,CP(=O)(Nc1ccc(SC(F)(F)F)cc1)Oc1ccc(Cl)cc1 (configuration not stated),inactive: -0.317%
13,CCc1ccc(OP(C)(=O)N2CCN(c3ccc([N+](=O)[O-])cc3)CC2)cc1 (configuration not stated),inactive: 1.81%
14,CP(=O)(NC(=O)Nc1ccccc1)Oc1ccccc1 (configuration not stated),inactive: -12.9%
15,CCOC(=O)c1ccc(NP(C)(=O)Oc2ccc(OC)cc2)cc1 (configuration not stated),inactive: -1.63%
16,O=[N+]([O-])c1cc([N+](=O)[O-])c(O)c([N+](=O)[O-])c1.c1ccc(Oc2ccncc2)cc1,inactive: -16.8%
17,CP(=O)(Nc1ccccn1)Oc1ccc(Cl)cc1 (configuration not stated),inactive: -0.397%
18,O=[N+]([O-])c1cc([N+](=O)[O-])c(-n2nnc3ccccc32)c([N+](=O)[O-])c1,inactive: 2.35%
19,CN(Cc1cccnc1)C(=O)COc1ccc(Cl)c(Cl)c1.O=[N+]([O-])c1cc([N+](=O)[O-])c(O)c([N+](=O)[O-])c1,inactive: 3.24%
20,CCOC(=O)C(CC)C1=NC(C)(C)Cc2ccccc21.O=[N+]([O-])c1cc([N+](=O)[O-])c(O)c([N+](=O)[O-])c1 (configuration not stated),inactive: -0.464%
21,O=[N+]([O-])c1cc([N+](=O)[O-])c(Nc2nnnn2CCO)c([N+](=O)[O-])c1,inactive: -5.47%

row,Structure (SMILES),inhibition
1,CN1CCCCC1COC(=O)C1(O)c2ccccc2CCc2ccccc21 (configuration not stated),inactive: -42.7%
2,CCCOc1ccc(NP(C)(=O)Oc2ccc(Cl)cc2)cc1 (configuration not stated),inactive: 1.88%
3,COc1ccc(-c2ccccn2)cc1.O=[N+]([O-])c1cc([N+](=O)[O-])c(O)c([N+](=O)[O-])c1,inactive: 0.126%
4,O=C(O)c1cccc(Nc2c([N+](=O)[O-])cc([N+](=O)[O-])cc2[N+](=O)[O-])c1,inactive: 4.9%
5,COc1ccccc1OP(C)(=O)Nc1cccc(Br)c1 (configuration not stated),inactive: 1.75%
6,Cc1cc(C)cc(OP(C)(=O)Nc2ccc(C)cc2C)c1 (configuration not stated),inactive: -0.263%
7,CCOC(=O)c1ccc(NP(C)(=O)Oc2cc(C)cc(C)c2)cc1 (configuration not stated),inactive: -4.14%
8,CP(=O)(Nc1cccc(Br)c1)Oc1ccccc1 (configuration not stated),inactive: -0.188%
9,Cc1cc(C)cc(OP(C)(=O)Nc2ccccn2)c1 (configuration not stated),inactive: 10.6%
10,O=[N+]([O-])c1cc([N+](=O)[O-])c(Nc2ccc(Cl)cc2)c([N+](=O)[O-])c1,inactive: -3.94%
11,CC(C)c1ccc(OP(C)(=O)Nc2ccc(SC(F)(F)F)cc2)cc1 (configuration not stated),inactive: 5.63%
12,CP(=O)(Nc1ccccc1F)Oc1ccccc1 (configuration not stated),inactive: 7.82%
13,O=C(OCCN1CCN(CCOCc2ccccc2)CC1)C(O)(c1ccccc1)c1ccccc1,inactive: 0.808%
14,O=C(OC1CN2CCC1CC2)c1ccc([N+](=O)[O-])cc1 (configuration not stated),inactive: -2.71%
15,COc1ccc2c(c1O)-c1c(O)c(OC)cc3c1[C@H](C2)[N+](C)(C)CC3.O=[N+]([O-])c1cc([N+](=O)[O-])c([O-])c([N+](=O)[O-])c1[O-],inactive: 1.67%
16,CCN(CC)CCCNc1ccccc1[N+](=O)[O-].O=[N+]([O-])c1cc([N+](=O)[O-])c(O)c([N+](=O)[O-])c1,inactive: 9.65%
17,COc1ccc(OP(C)(=O)Nc2ccc(SC(F)(F)F)cc2)cc1 (configuration not stated),inactive: 4.61%
18,Cc1c([N+](=O)[O-])cc([N+](=O)[O-])c(Br)c1[N+](=O)[O-],inactive: -4.57%
19,O=[N+]([O-])c1cc([N+](=O)[O-])c(OC2CCCCC2O)c([N+](=O)[O-])c1 (configuration not stated),inactive: 4.06%
20,CCCCCOc1ccc(NP(C)(=O)Oc2ccc(Cl)cc2Cl)cc1 (configuration not stated),inactive: -5.36%
21,COc1ccc(NP(C)(=O)Oc2ccccc2OC)cc1 (configuration not stated),inactive: -13.2%

row,Structure (SMILES),inhibition
1,O=[N+]([O-])c1cc([N+](=O)[O-])c(NCC2CCS(=O)(=O)C2)c([N+](=O)[O-])c1 (configuration not stated),inactive: -1.61%
2,Cc1cc(-c2cccc3ccccc23)c(C)cn1.O=[N+]([O-])c1cc([N+](=O)[O-])c(O)c([N+](=O)[O-])c1,inactive: 7.1%
3,O=[N+]([O-])c1ccc(OP2(=O)COCCO2)cc1 (configuration not stated),inactive: 6.9%
4,Cc1c(C(c2ccc3c(c2)OCO3)c2c(C)n(C)n(-c3ccccc3)c2=O)c(=O)n(-c2ccccc2)n1C.O=[N+]([O-])c1cc([N+](=O)[O-])c(O)c([N+](=O)[O-])c1,inactive: -3.33%
5,CP(=O)(Nc1ccc(SC(F)(F)F)cc1)Oc1ccc(F)cc1 (configuration not stated),inactive: -4.58%
6,CCOP(=O)(CC)OCC,inactive: 16.8%
7,O=[N+]([O-])c1cc([N+](=O)[O-])c(C(F)(F)F)c([N+](=O)[O-])c1O,inactive: -3.11%
8,CCc1ccc(OP(C)(=O)Nc2cccnc2)cc1 (configuration not stated),inactive: 1.15%
9,O=C(OCCCN1CCCC1)C(O)(c1ccccc1)C1CCCCC1 (configuration not stated),inactive: 3.59%
10,COc1ccccc1OP(C)(=O)Nc1ccccc1Br (configuration not stated),inactive: 1.76%
11,CN(C)C(=O)c1c([N+](=O)[O-])cc([N+](=O)[O-])cc1[N+](=O)[O-],inactive: 0.559%
12,Nc1ccc2c(ccc3cccnc32)n1.O=[N+]([O-])c1cc([N+](=O)[O-])c(O)c([N+](=O)[O-])c1,inactive: -0.0595%
13,CCOC(=O)c1ccc(NP(C)(=O)Oc2ccc(Cl)cc2)cc1 (configuration not stated),inactive: -5.56%
14,Cc1cc(C)cc(OP(C)(=O)Nc2cccc(C(F)(F)F)c2)c1 (configuration not stated),inactive: -5.35%
15,O=C1C(O)=C([N+](=O)[O-])C(=O)C(O)=C1[N+](=O)[O-],inactive: -3.02%
16,CP(=O)(OCCOc1ccccc1)OCCOc1ccccc1,inactive: 2.11%
17,CP(=O)(Nc1ccc(Cl)cc1Cl)Oc1ccccc1 (configuration not stated),inactive: 0.882%
18,CCCCCCCCCCCCCCCC1C[N+](C)(C)CCOP(C)(=O)O1 (configuration not stated),inactive: 1.76%
19,COc1ccccc1OP(C)(=O)Nc1ccc(Br)cc1 (configuration not stated),inactive: -1.69%
20,O=[N+]([O-])c1cc([N+](=O)[O-])c(Nc2ccccn2)c([N+](=O)[O-])c1,inactive: -0.236%
